## Apparent affinities of Ab-14 variants for a coronavirus HR2 peptide

Target: peptide PDVDLGDISGINAS, taken from heptad repeat 2 (HR2) of SARS-CoV-2 spike.

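The starting antibody came from a phage panning campaign against this peptide. Variants in AAYL49 differ from the parent at up to three CDR positions; double and triple changes were sampled at random. In AlphaSeq, yeast of one mating type display the scFv and yeast of the other type display the target. After mating in shaken culture at 30 °C for 16 h, diploids were selected and their barcode pairs sequenced. The ratio of observed to expected reads was calibrated, replicate by replicate, on BCL2-family standards whose Kd was known from biolayer interferometry. The assay was run in three technical replicates.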

Each scFv is VH, a (GGGGS)3 linker, VL, as in the parent Ab-14, and differs from it in the CDRs of the heavy chain only.
VH: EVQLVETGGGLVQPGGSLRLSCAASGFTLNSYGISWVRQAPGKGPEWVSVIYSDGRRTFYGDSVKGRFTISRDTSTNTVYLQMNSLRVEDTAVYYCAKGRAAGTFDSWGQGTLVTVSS
VL: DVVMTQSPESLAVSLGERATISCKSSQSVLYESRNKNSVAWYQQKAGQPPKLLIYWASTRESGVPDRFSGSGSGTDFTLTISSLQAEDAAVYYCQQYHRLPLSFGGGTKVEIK

Each variant is given by its three heavy chain CDRs, as the data file delimits them; those of the parent are GFTLNSYGIS, VIYSDGRRTFYGDSVK, GRAAGTFDS.
Scale: log10 of Kd in nM, estimated from mating counts; low values are strong binders.
"ND" means that the variant was in the library but no mating with the target was seen in that replicate; the authors take this as a sign of poor binding, and no number exists.
As a blank, each scFv also met three strains without target: over library AAYL49, 15% of these pairings were detected, typically at 4.06 and seldom below 2.83. For each scFv, signals with the empty controls are counted beside the result, with their mean in brackets.

CDR-H1,CDR-H2,CDR-H3,"log10 Kd, replicates",empty controls
GFTLNPYGIS,VIYSDGRRVRYGDSVK,GRAAGTFDS,3.01 / 2.82 / 2.51,3 of 9 (4.73)
GFTLNSYGIS,VIYSDGRRQFYGDDVK,GRAAGTFDS,1.41 / 1.55 / 1.63,0 of 9
GFTLNSYGIS,AIYSDMRRTFYGHSVK,GRAAGTFDS,ND / ND / ND,1 of 9 (2.27)
GFTLNSEGIS,VIRSDGRRTFYGDSVK,GRAAGTFKS,ND / ND / ND,2 of 9 (4.07)
GFTLNSYPIS,VIYSDGRRTSYGDSVK,GRAAGTFDS,ND / 3.73 / ND,4 of 9 (4.50)
GFTLNQYQIS,VCYSDGRRTFYGDSVK,GRAAGTFDS,ND / ND / ND,0 of 9
GFTLNSAGIS,VIYSDGRRTFYGDLVK,GRAAGTFDS,ND / 3.25 / ND,0 of 9
GFTLNSYGIS,CIYSDGGRTFYGDSVP,GRAAGTFDS,ND / 4.01 / 4.79,2 of 9 (4.24)
GFTLNNYGIS,VIYRDGRRTFYGDAVK,GRAAGTFDS,1.54 / 2.05 / 0.99,0 of 9
GFTLNSYGIS,VIKSDGRRPFYGDSVK,GYAAGTFDS,ND / ND / ND,0 of 9
GFTLNSYGIS,QIYSDGRRSFYGDSVK,GRLAGTFDS,3.76 / ND / 4.31,2 of 9 (3.83)
GFTLNSYQIS,VIYSDGRRTFYYDSVK,GRAAGTFDS,ND / ND / ND,0 of 9
GFTLNSYGIS,MIYSDGPRTFYGDSVK,GRAAGTFDS,ND / ND / ND,0 of 9
GFTLNSYPIS,VIYSDGRLTFYGDSWK,GRAAGTFDS,ND / 3.21 / ND,1 of 9 (3.96)
GGTLNSYGIS,VICSDGRVTFYGDSVK,GRAAGTFDS,ND / ND / ND,2 of 9 (4.88)
GFFLNSYGIS,VIYSDPRRTFSGDSVK,GRAAGTFDS,ND / ND / ND,1 of 9 (3.83)
GFTLDSYGIS,VEYSDGRRTFYGLSVK,GRAAGTFDS,5.23 / 4.37 / ND,1 of 9 (4.61)
GFTLNSYGIS,VIRSDGRRDFYGDSVK,ARAAGTFDS,ND / ND / ND,1 of 9 (3.25)
GFTLNSYGTS,VIYSDGRRTRYGDSVK,GRAAGTFDS,5.42 / ND / 3.96,4 of 9 (4.58)
GHTLNSYGIS,VIYCDGRRTFYGDSVK,GRAAGDFDS,ND / ND / ND,3 of 9 (4.36)
GFTLNSYGIS,VIYSDGRRTFYGDSVK,IGAAGTFDW,ND / ND / 4.10,0 of 9
GFTLNSYGIS,VIYSDGRRCFYGDKVK,GRAAGTFQS,4.29 / ND / ND,0 of 9
GFTLNLYGIS,VIYSDGRDTFYGDSVK,GRAAGTFDA,ND / ND / ND,0 of 9
RFTLNSYGIS,VIYSDGRETFYGDSVY,GRAAGTFDS,ND / ND / ND,0 of 9
GFTLNSWGIS,VIYHDGRRTFYGDSVK,GRAAYTFDS,4.20 / ND / ND,1 of 9 (3.14)
GFTLNSYIIS,VIYSDNRRTFYGDSVK,GRASGTFDS,5.63 / 4.47 / 3.86,6 of 9 (4.48)
GFTLNSPGIS,VIYSDGRRTFYGDSSK,QRAAGTFDS,ND / ND / ND,5 of 9 (3.75)
GGGLNSYGIS,VIYSDGRRTQYGDSVK,GRAAGTFDS,2.90 / ND / 3.60,3 of 9 (3.74)
GFTLNSYGIS,VIYEDGRRTFSGDSVK,GRAAGTFAS,ND / 3.33 / 4.55,3 of 9 (3.26)
LFTLNSCGIS,VIYSQGRRTFYGDSVK,GRAAGTFDS,ND / ND / ND,0 of 9
GFTLNSYGIS,VIYSDGRRTFYGDDVK,TRAAGTFPS,0.34 / 0.63 / 0.36,1 of 9 (4.35)

Extract of 4 entries:

CDR-H1,CDR-H2,CDR-H3,"log10 Kd, replicates",empty controls
GFTLNSYGIS,VIYSDGRRTFYGDSVK,IGAAGTFDW,ND / ND / 4.10,0 of 9
GFTLNSYGIS,VIYEDGRRTFSGDSVK,GRAAGTFAS,ND / 3.33 / 4.55,3 of 9 (3.26)
GFTLNSPGIS,VIYSDGRRTFYGDSSK,QRAAGTFDS,ND / ND / ND,5 of 9 (3.75)
GFTLNSYGIS,VIYSDGRRQFYGDDVK,GRAAGTFDS,1.41 / 1.55 / 1.63,0 of 9

In this assay the parent's reference entry averaged 0.65; its copy inside this library read 4.11 (one replicate of three).

Reference: Engelhart et al. 2022, doi:10.1038/s41597-022-01779-4. File: FLAb, binding data.